# AlphaSeq binding of Ab-95 light chain variants to a spike HR2 peptide

Data: MIT Lincoln Laboratory AlphaSeq set, Engelhart et al. 2022, doi:10.1038/s41597-022-01779-4, as distributed in FLAb.

Target: peptide PDVDLGDISGINAS, taken from heptad repeat 2 (HR2) of SARS-CoV-2 spike.

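Phage display of a naive human antibody library on the peptide gave the parent. Library AAYL52 holds single substitutions and randomly drawn double and triple substitutions in the CDRs. AlphaSeq pools MATa yeast showing the antibodies with MATalpha yeast showing the peptide. The frequency of each diploid, read from paired DNA barcodes, reflects how well the two displayed proteins bind. Scores were corrected for input abundance and mapped to Kd with protein pairs of known affinity run in the same pool. There are three technical replicates.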

The variants keep the heavy chain, the linker and the frameworks of Ab-95 (scFv order VH, three GGGGS repeats, VL).
VH: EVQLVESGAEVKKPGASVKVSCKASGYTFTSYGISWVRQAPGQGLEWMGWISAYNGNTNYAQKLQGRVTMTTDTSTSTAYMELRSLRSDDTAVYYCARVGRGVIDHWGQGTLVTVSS
VL: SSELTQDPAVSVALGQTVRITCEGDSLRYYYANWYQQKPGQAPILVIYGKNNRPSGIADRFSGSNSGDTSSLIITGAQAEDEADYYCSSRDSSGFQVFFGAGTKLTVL

Substitutions are numbered in sequence along the VL above, starting at 1 (not Kabat). Scale: log10 of Kd in nM, estimated from mating counts; low values are strong binders. The mean shown is taken over the replicates in which the pair was detected. An entry "n.d." has no value in the source: the pair was not observed among the diploids in that replicate. This suggests poor binding but is not conclusive. In this assay the parent's reference entry averaged 2.31; its copy inside this library read 2.25. Empty control strains, which show no peptide, gave a signal in 28% of pairings with library AAYL52; the median was 3.91 and 95% of these signals were weaker than 2.90. No background was subtracted. The control count says in how many pairings with the empty strains this scFv gave a signal, with their mean in brackets.

changes | replicates, log10 nM | log10 Kd (nM), mean | control signals
A32I N52P Q96K | 3.44 5.81 n.d. | 4.63 | 2/9 (4.10)
L27S N33M | 4.18 n.d. n.d. | 4.18 | 3/9 (3.65)
G24M G94R Q96P | 4.20 3.77 4.04 | 4.01 | 2/9 (4.29)
S55N | 1.74 1.75 1.34 | 1.61 | 4/9 (4.16)
S26Q K50N N51Q | 2.72 3.29 3.49 | 3.17 | 4/9 (3.60)
S55C | 2.41 2.51 2.40 | 2.44 | 4/9 (3.30)
N33K G49H G94S | n.d. 4.75 3.09 | 3.92 | 3/9 (3.33)
N33L R53C S89N | n.d. n.d. n.d. | n.d. | 1/9 (5.87)
L27T A32E N52S | 4.10 n.d. 3.86 | 3.98 | 4/9 (3.55)
E23V G49Y V97R | n.d. n.d. n.d. | n.d. | 0/9
R90T G94A F98N | 3.67 3.17 n.d. | 3.42 | 1/9 (4.24)
E23H L27F F95L | n.d. 4.28 3.22 | 3.75 | 5/9 (3.64)
D25T N33P S55M | n.d. n.d. n.d. | n.d. | 0/9
S89N Q96I | 2.94 2.79 3.35 | 3.03 | 1/9 (3.56)
Y31E K50H F98W | 1.09 1.13 0.52 | 0.91 | 2/9 (4.87)
E23K K50D S89I | 4.96 n.d. n.d. | 4.96 | 4/9 (3.48)
E23Y R90D V97E | n.d. n.d. n.d. | n.d. | 0/9
L27Y K50W F95P | 2.97 n.d. n.d. | 2.97 | 2/9 (3.86)
G24W S26Q S89T | 3.37 n.d. 3.88 | 3.63 | 4/9 (3.82)
G24C S88G F95H | n.d. n.d. 3.65 | 3.65 | 1/9 (2.84)
S55F G94Y F98D | 3.78 3.66 4.35 | 3.93 | 4/9 (4.03)
S26D F95V V97T | 2.21 2.11 1.52 | 1.95 | 1/9 (4.08)
E23P Y30D S55H | n.d. n.d. n.d. | n.d. | 0/9
A32Y N51T P54S | 3.77 n.d. 2.83 | 3.30 | 3/9 (3.76)
D25Q A32E R53E | 4.10 3.06 3.04 | 3.40 | 2/9 (4.08)

3 of these entries, quoted again:

changes,"replicates, log10 nM","log10 Kd (nM), mean",control signals
A32Y N51T P54S,3.77 n.d. 2.83,3.30,3/9 (3.76)
D25T N33P S55M,n.d. n.d. n.d.,n.d.,0/9
L27Y K50W F95P,2.97 n.d. n.d.,2.97,2/9 (3.86)